Results taken from US7488576B2, “Methods for diagnosis and treatment of psychiatric disorders” (The Regents of the University of California, priority 2000, dated 2009).

Test system: GRK3
Experiment: Gene expression in rat brain after stimulant treatment (Affymetrix U34A GeneChip), prefrontal cortex
Conditions: rat frontal cortex
Experimental: In experiments conducted during the development of the present invention, the rat animal model was used. This model is commonly accepted by those in the art for experiments involving psychiatric disorders. In some experiments, rats were treated with a single dose of methamphetamine (4 mg/kg) and sacrificed 24 hours later. This timepoint was chosen as that most likely to detect changes of relevance to mania and psychosis. It was hypothesized that at 24 hours, most short term gene induction relevant to acute intoxication and behavioral activation would have subsided. […] As mania and psychosis are typically chronic processes in man, more persistent gene changes are more likely to be central to pathophysiological mechanisms. Gene expression was examined in the prefrontal cortex and amygdala, using the Afymetrix U34A GeneChip, which interrogates approximately 7,000 known genes and 1,000 ESTs (expressed sequence tags) using an oligonucleotide nicroarray (See, Lipshutz et al., Nat. Genet. 21:20 [1999]). These brain regions were chosen based on the extensive literature that highlights their central role in cognition and emotion (See e.g., Heimer and Alheid, Adv. Exp. Med. Biol. 1:295 [1991]).
A two-fold increase or decrease in expression was chosen as a conventional empirical cut-off. […]

SMILES: CC(N)Cc1ccccc1 (stereo not shown) [amphetamine]
- GRK3 expression in response to amphetamine challenge: dramatic up-regulation
